# Test: Ratio of drug level in plasma to brain in Sprague-Dawley rat at 10 mg/kg, sc
# Details: in vivo, strain Sprague-Dawley
row,Structure (SMILES),Ratio
1,OCC1(N2CCC(n3c(N4CC5CNCC5C4)nc4ccccc43)CC2)CCCCCCC1 (configuration not stated),3.95
2,CN1CCN(c2nc3ccccc3n2C2CCN(C3(CO)CCCCCCC3)CC2)CC1,0.58

# Source: ChEMBL document CHEMBL1649335, “Discovery of {1-[4-(2-{hexahydropyrrolo[3,4-c]pyrrol-2(1H)-yl}-1H-benzimidazol-1-yl)piperidin-1-yl]cyclooctyl}methanol, systemically potent novel non-peptide agonist of nociceptin/orphanin FQ receptor as analgesic for the treatment of neuropathic pain: design, synthesis, and structure-activity …” (Bioorg Med Chem, 2010)
